# Antibody variant affinities, Ab-14 heavy chain, assay 1

The measurements come from Engelhart et al. 2022 (doi:10.1038/s41597-022-01779-4) through the FLAb antibody collection.

Binding partner: SARS-CoV-2 spike HR2 peptide, sequence PDVDLGDISGINAS.

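The library (AAYL49) carries one to three amino acid substitutions per variant, with no insertions or deletions. In AlphaSeq, yeast of one mating type display the scFv and yeast of the other type display the target. After mating in shaken culture at 30 °C for 16 h, diploids were selected and their barcode pairs sequenced. The ratio of observed to expected reads was calibrated, replicate by replicate, on BCL2-family standards whose Kd was known from biolayer interferometry. Each pool was mated in three replicate cultures.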

The variants keep the light chain, the linker and the frameworks of Ab-14 (scFv order VH, three GGGGS repeats, VL).
VH: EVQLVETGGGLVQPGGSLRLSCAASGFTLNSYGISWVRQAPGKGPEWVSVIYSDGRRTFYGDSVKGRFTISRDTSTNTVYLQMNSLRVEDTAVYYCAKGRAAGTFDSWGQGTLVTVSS
VL: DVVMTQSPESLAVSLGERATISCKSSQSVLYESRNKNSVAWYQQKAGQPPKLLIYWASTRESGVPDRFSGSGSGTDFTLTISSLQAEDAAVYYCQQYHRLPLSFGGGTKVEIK

Positions count from residue 1 of the parent VH; Y52F puts F in place of Y.
Affinities are written as log10 Kd with Kd in nM; a lower number is a better binder.
Replicates are averaged; those with no signal do not enter the mean.
An entry "nd" has no value in the source: the pair was not observed among the diploids in that replicate. This suggests poor binding but is not conclusive.
Nonspecific signal, from three strains lacking the peptide, appeared in 15% of pairings of library AAYL49, centred on 4.06 (5% of these signals below 2.83); values are not corrected for it.

| # | replicates, log10 nM | mean, log10 nM | changes |
|---|---|---|---|
| 1 | nd / 2.85 / nd | 2.85 | Y52F/A101V/A102K |
| 2 | 1.30 / 1.19 / 1.27 | 1.25 | D62P/A102P |
| 3 | 2.59 / 2.52 / 2.66 | 2.59 | F27S/S35H/R100N |
| 4 | nd / nd / nd | nd | F27Q/N30Y/T58G |
| 5 | nd / nd / 3.62 | 3.62 | Y32S/T58Q/A102E |
| 6 | nd / nd / nd | nd | I34T/V64W/A101K |
| 7 | nd / nd / nd | nd | G61W/S63W |
| 8 | nd / 4.52 / 5.00 | 4.76 | R56I/G99L |
| 9 | 6.19 / 3.61 / 5.11 | 4.97 | R57E/S63D/G103I |
| 10 | 3.23 / nd / nd | 3.23 | A101Q/A102K/D106W |
| 11 | nd / nd / nd | nd | D54H/G55V/G103S |
| 12 | nd / nd / 3.85 | 3.85 | S53L/F59D/Y60Q |
| 13 | nd / nd / nd | nd | T28Q/S35H/V64D |
| 14 | nd / nd / nd | nd | S35G/S53L/R57K |
| 15 | nd / nd / nd | nd | G55F/F59N/F105A |
| 16 | nd / nd / nd | nd | F59C/G103P/D106G |
| 17 | 3.09 / 4.60 / 4.38 | 4.02 | Y52R/F59W/G103S |
| 18 | nd / nd / nd | nd | Y32F/D62H/F105W |
| 19 | nd / nd / nd | nd | N30I/V50C/R57E |
| 20 | nd / nd / nd | nd | V50M/D106L |
| 21 | 3.85 / nd / nd | 3.85 | D54T/S63Q/G99C |
| 22 | 3.50 / 3.59 / 4.19 | 3.76 | Y60I/G61L/K65R |
| 23 | nd / nd / nd | nd | F27P/G33S/S53H |
| 24 | 4.27 / nd / nd | 4.27 | G26D/Y52V/S107N |
| 25 | nd / nd / nd | nd | G55H/G61F/D106K |
| 26 | nd / nd / nd | nd | F27Y/G33S/Y52H |
| 27 | 2.31 / 2.04 / 2.56 | 2.30 | T28I/L29I/S31K |
| 28 | nd / nd / nd | nd | V50Y/Y52I/G61Q |
| 29 | 6.10 / 4.77 / 4.23 | 5.03 | Y32R/Y52L/G99D |
| 30 | nd / nd / nd | nd | Y60G/G103P/D106L |
| 31 | nd / nd / nd | nd | L29T/T58Q/D62N |
| 32 | 3.21 / 2.47 / nd | 2.84 | G26P/V64A |
| 33 | nd / nd / nd | nd | N30Q/D54C/A101D |
| 34 | 1.22 / 2.02 / 1.72 | 1.65 | T28S/D62E/S107R |
| 35 | nd / nd / nd | nd | S53V/T104C |
| 36 | 3.62 / nd / nd | 3.62 | S31R/V50G/V64Q |
| 37 | nd / 4.44 / nd | 4.44 | N30G/S31D/I51W |
| 38 | nd / nd / nd | nd | G99W/A101M |
| 39 | nd / nd / nd | nd | V50I/Y52W/S63W |
| 40 | 1.51 / 1.44 / 1.63 | 1.53 | A101L/F105Q/S107Y |
| 41 | 0.06 / 0.46 / 0.18 | 0.23 | S31E/T104Q |
| 42 | 2.80 / 2.67 / 2.46 | 2.64 | T28V/S31F/G103C |
| 43 | nd / nd / nd | nd | G26V/L29P/A102T |
| 44 | nd / nd / nd | nd | G26F/I51Q/R100A |
| 45 | nd / nd / nd | nd | L29K/S31D/S63W |
| 46 | nd / nd / nd | nd | T28L/Y60D/A102F |
| 47 | nd / nd / nd | nd | D54P/Y60N/G103K |

The 6 strongest on average among those seen in every replicate, once more:

changes,"replicates, log10 nM","mean, log10 nM"
S31E/T104Q,0.06 / 0.46 / 0.18,0.23
D62P/A102P,1.30 / 1.19 / 1.27,1.25
A101L/F105Q/S107Y,1.51 / 1.44 / 1.63,1.53
T28S/D62E/S107R,1.22 / 2.02 / 1.72,1.65
T28I/L29I/S31K,2.31 / 2.04 / 2.56,2.30
F27S/S35H/R100N,2.59 / 2.52 / 2.66,2.59